Experiment [1] in a line: NCI Yeast Anticancer Drug Screen. Data for the rad50 strain (AID 155).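 Further: 0% = growth of vehicle-only cultures of the same strain.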 The settings on record: S. cerevisiae rad50 strain growth inhibition, active compounds read high.
Experiment [2] can be described thus: NCI Yeast Anticancer Drug Screen. Data for the mec2-1 strain (AID 157). Particulars: S. cerevisiae mec2-1 strain, active compounds read high.
Experiment [3] is described as follows: NCI Yeast Anticancer Drug Screen. Data for the sgs1 mgt1 strain (AID 161).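 Further: 0% = growth of cultures given vehicle only.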 The settings on record: S. cerevisiae sgs1 mgt1 strain, active compounds read high.
Experiment [4] in a line: NCI Yeast Anticancer Drug Screen. Data for the cln2 rad14 strain (AID 165).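 Further: 0% = growth equal to vehicle treated cultures.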 Particulars: S. cerevisiae cln2 rad14 strain, active compounds read high.
Experiment [5] in a line: NCI Yeast Anticancer Drug Screen. Data for the bub3 strain (AID 167). Particulars: S. cerevisiae bub3 mutant strain, active compounds read high.
Experiment [6] in a line: NCI Yeast Anticancer Drug Screen. Data for the mlh1 rad18 strain (AID 175). Particulars: S. cerevisiae mlh1 rad18 strain growth inhibition, active compounds read high.
A short description of experiment [7]: NCI Yeast Anticancer Drug Screen. Data for the rad14 strain (AID 159).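 Further: 0% = growth of vehicle-treated control cultures.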 Particulars: S. cerevisiae rad14 strain growth inhibition, active compounds read high. The procedure, abridged:
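DNA repair-defective yeast, compound-exposed; % growth inhibition derived by comparison with vehicle-treated controls.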

Experiment [8] is described as follows: NCI Yeast Anticancer Drug Screen. Data for the rad50EPP+ strain (AID 151).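 Further: 0% = growth of vehicle-treated control cultures.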 Particulars: S. cerevisiae rad50 mutant strain, active compounds read high. The procedure, abridged: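 Vehicle-normalised growth inhibition; rad50EPP+ yeast strain, altered in DNA damage repair, compound-treated.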
A short description of experiment [9]: NCI Yeast Anticancer Drug Screen. Data for the mlh1 strain (AID 171).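 Further: 0% = growth of vehicle-treated control cultures of the same strain.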 Particulars: S. cerevisiae mlh1 strain growth inhibition, active compounds read high. The procedure, abridged: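 Measured: yeast growth. Reference: vehicle-treated controls. Organism: strain with a defined alteration affecting DNA damage repair or cell cycle control, treated with compound.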
[10] abbreviates: at 5.0 µM (retest, dose inferred, filed as 0.5).
Setting [11] is: at 50.0 µM (retest, dose inferred, filed as 5.0).

Only a part is listed here, and it is no random draw. The source holds several records for some structures; these can differ, active in one and inactive in another. Some structures show a salt or complex split into parts, the way the source records it. Active and inactive are the calls of the source. No stated cut-off is given here; in the data, active means growth inhibition above about 70%; inactive means the rest.

Regarding `Cc1ccc(CN2CCCCC2)o1.O=[N+]([O-])c1cc([N+](=O)[O-])c(O)c([N+](=O)[O-])c1`, the growth inhibition in experiment [1] (setting [10]) is inactive: 19%; in experiment [1] (setting [11]) it was inactive: 60%; in experiment [1] (at 50.0 µM), active: 83.3%; in experiment [2] (setting [10]), inactive: 13%; in [2] (setting [11]) it was inactive: 55%; in [2] (at 50.0 µM), active: 81.8%. Further, the growth inhibition in [3] (setting [10]) was inactive: 39%; in experiment [3] (setting [11]) it was active: 84%; in experiment [3] (at 50.0 µM), active: 89.7%; in experiment [4] (setting [10]), inactive: 28%; in [4] (setting [11]) it was inactive: 39%; in [4] (at 50.0 µM), active: 78%. Moreover, the growth inhibition in experiment [5] (setting [10]) was inactive: 40%; in experiment [5] (setting [11]), inactive: 68%; in experiment [5] (at 50.0 µM) it was active: 80%; in [6] (setting [10]), inactive: 21%; in [6] (setting [11]), inactive: 63%; in [6] (at 50.0 µM), active: 82.5%.
As to `O=[N+]([O-])c1ccc(-c2ccc([N+](=O)[O-])cc2[N+](=O)[O-])c([N+](=O)[O-])c1`, the growth inhibition in experiment [1] (setting [10]) is inactive: 40%; in experiment [1] (setting [11]) it was inactive: 65%; in experiment [1] (at 50.0 µM), active: 70.8%; in [2] (setting [10]), inactive: 46%; in experiment [2] (setting [11]), active: 73%; in [2] (at 50.0 µM), active: 75.8%. Besides, the growth inhibition in [3] (setting [10]) was inactive: 18%; in experiment [3] (setting [11]), active: 96%; in experiment [3] (at 50.0 µM), active: 87.2%; in experiment [4] (setting [10]) it was inactive: 21%; in experiment [4] (setting [11]) it was active: 96%; in [4] (at 50.0 µM), inactive: 41.4%. In addition, the growth inhibition in [5] (setting [10]) was inactive: 44%; in experiment [5] (setting [11]) it was active: 97%; in experiment [5] (at 50.0 µM), active: 84.2%; in [6] (setting [10]) it was inactive: 37%; in experiment [6] (setting [11]), inactive: 59%; in experiment [6] (at 50.0 µM) it was active: 78.1%.
Regarding `[Au+].[N-]=[N+]=N.c1ccc([PH+](c2ccccc2)c2ccccc2)cc1`, the growth inhibition in experiment [1] (at 1.2 µM) was inactive: 3%; in [1] (at 3.7 µM), active: 96%; in experiment [1] (setting [10]), active: 91%; in experiment [1] (at 11.0 µM) it was active: 97%; in experiment [1] (at 33.0 µM), active: 89%; in [1] (at 50.0 µM), inactive: 37.5%. In addition, the growth inhibition in experiment [1] (at 100.0 µM) was active: 84%; in [2] (at 1.2 µM) it was inactive: 36%; in [2] (at 3.7 µM), active: 95%; in experiment [2] (setting [10]) it was active: 97%; in [2] (at 11.0 µM) it was active: 97%; in experiment [2] (at 33.0 µM), active: 93%. The growth inhibition in [2] (setting [11]) is active: 98%; in experiment [2] (at 50.0 µM) it was inactive: 6.75%; in [2] (at 100.0 µM), active: 89%; in experiment [7] (at 1.2 µM) it was inactive: 6%; in [7] (at 3.7 µM), active: 99%; in experiment [7] (at 11.0 µM) it was active: 98%. Moreover, the growth inhibition was active: 96% in experiment [7] (at 33.0 µM); active: 86% in experiment [7] (at 100.0 µM); active: 78% in experiment [3] (setting [10]); inactive: 20.6% in experiment [3] (at 50.0 µM); active: 76% in experiment [4] (setting [10]); inactive: 8.3% in experiment [4] (at 50.0 µM). Also, the growth inhibition in experiment [5] (at 1.2 µM) was inactive: 2%; in experiment [5] (at 3.7 µM), inactive: 2%; in experiment [5] (setting [10]), inactive: -3%; in [5] (at 33.0 µM) it was active: 95%; in experiment [5] (at 100.0 µM) it was active: 91%; in experiment [6] (setting [10]), active: 79%. Besides, in experiment [6] (at 50.0 µM), the growth inhibition was inactive: 24.7%.
In the case of `Cc1ccc(C2=CC=C(c3ccccc3)C2)cc1.O=[N+]([O-])c1cc([N+](=O)[O-])cc([N+](=O)[O-])c1`, the growth inhibition in experiment [1] (setting [10]) is inactive: 36%; in experiment [1] (setting [11]), active: 98%; in experiment [1] (at 50.0 µM) it was active: 98.8%; in experiment [2] (setting [10]) it was inactive: 34%; in [2] (setting [11]), active: 98%; in [2] (at 50.0 µM), active: 99.5%. The growth inhibition is inactive: 51% in experiment [3] (setting [10]); active: 99% in [3] (setting [11]); active: 99.4% in [3] (at 50.0 µM); inactive: 8% in experiment [4] (setting [10]); active: 97% in experiment [4] (setting [11]); active: 99.1% in [4] (at 50.0 µM). Moreover, the growth inhibition was active: 73% in [5] (setting [10]); active: 98% in experiment [5] (setting [11]); active: 99.1% in experiment [5] (at 50.0 µM); inactive: 28% in experiment [6] (setting [10]); active: 99% in experiment [6] (setting [11]); active: 99.2% in [6] (at 50.0 µM).
Consider `COc1ccccc1N.O=[N+]([O-])c1cc([N+](=O)[O-])cc([N+](=O)[O-])c1`, for which the growth inhibition in experiment [8] (at 1.2 µM) was inactive: 0%; in [8] (at 3.7 µM), inactive: 14%; in experiment [8] (at 11.0 µM), active: 77%; in experiment [8] (at 33.0 µM) it was active: 99%; in experiment [8] (at 100.0 µM) it was active: 99%; in experiment [1] (at 1.2 µM) it was inactive: -1%. The growth inhibition in [1] (at 3.7 µM) is inactive: 7%; in experiment [1] (setting [10]), inactive: 10%; in experiment [1] (at 11.0 µM) it was inactive: 53%; in [1] (at 33.0 µM), active: 99%; in experiment [1] (setting [11]) it was active: 99%; in experiment [1] (at 50.0 µM), active: 99.8%. In addition, the growth inhibition is active: 99% in experiment [1] (at 100.0 µM); inactive: -2% in experiment [2] (at 1.2 µM); inactive: 10% in [2] (at 3.7 µM); inactive: 18% in [2] (setting [10]); inactive: 54% in experiment [2] (at 11.0 µM); active: 99% in experiment [2] (at 33.0 µM). The growth inhibition in experiment [2] (setting [11]) is active: 100%; in experiment [2] (at 50.0 µM) it was active: 99.8%; in experiment [2] (at 100.0 µM), active: 99%; in [3] (setting [10]), inactive: 27%; in experiment [3] (setting [11]), active: 99%; in experiment [3] (at 50.0 µM) it was active: 99.8%. The growth inhibition in experiment [4] (setting [10]) was inactive: -1%; in [4] (setting [11]), active: 98%; in [4] (at 50.0 µM), active: 99.5%; in experiment [5] (at 1.2 µM) it was inactive: -4%; in [5] (at 3.7 µM), inactive: 4%; in experiment [5] (setting [10]), inactive: 24%. Moreover, the growth inhibition in experiment [5] (at 11.0 µM) is active: 71%; in experiment [5] (at 33.0 µM), active: 99%; in experiment [5] (setting [11]) it was active: 97%; in [5] (at 50.0 µM), active: 99.9%; in experiment [5] (at 100.0 µM) it was active: 99%; in [9] (at 1.2 µM) it was inactive: -1%. For the same molecule, the growth inhibition in experiment [9] (at 3.7 µM) was inactive: 12%; in experiment [9] (at 11.0 µM), inactive: 52%; in [9] (at 33.0 µM) it was active: 99%; in experiment [9] (at 100.0 µM), active: 99%; in [6] (setting [10]), inactive: 30%; in [6] (setting [11]), active: 99%. Moreover, the growth inhibition in experiment [6] (at 50.0 µM) was active: 86.3%.
Regarding `CC(C)OP(C)(=O)O.[Er]`, the growth inhibition in experiment [1] (setting [10]) was inactive: 0%; in experiment [1] (setting [11]), inactive: 4%; in experiment [1] (at 50.0 µM) it was inactive: 9.45%; in experiment [2] (setting [10]) it was inactive: 4%; in experiment [2] (setting [11]), inactive: -3%; in experiment [2] (at 50.0 µM) it was inactive: 27.2%. Also, the growth inhibition in experiment [3] (setting [10]) was inactive: -3%; in experiment [3] (setting [11]), inactive: -1%; in experiment [3] (at 50.0 µM), inactive: 0.9%; in [4] (setting [10]), inactive: 2%; in experiment [4] (setting [11]), inactive: -3%; in experiment [4] (at 50.0 µM) it was inactive: 62.1%. Also, the growth inhibition in experiment [5] (setting [10]) is inactive: 0%; in experiment [5] (setting [11]), inactive: -4%; in experiment [5] (at 50.0 µM) it was inactive: 2%; in experiment [6] (setting [10]), inactive: 30%; in [6] (setting [11]) it was inactive: -5%; in [6] (at 50.0 µM), inactive: -1.95%.
For the molecule `C/C(=N\OC(C)([N+](=O)[O-])[N+](=O)[O-])[N+](=O)[O-]`, the growth inhibition in experiment [1] (setting [10]) is inactive: -151%; in experiment [1] (setting [11]), active: 89%; in [1] (at 50.0 µM), active: 99.7%; in experiment [2] (setting [10]) it was inactive: -48%; in [2] (setting [11]) it was active: 91%; in experiment [2] (at 50.0 µM) it was active: 99.7%. The growth inhibition is inactive: -64% in experiment [3] (setting [10]); active: 81% in [3] (setting [11]); active: 99.5% in experiment [3] (at 50.0 µM); inactive: -61% in [4] (setting [10]); active: 82% in experiment [4] (setting [11]); active: 99.2% in [4] (at 50.0 µM). Further, the growth inhibition in [5] (setting [10]) is inactive: -53%; in experiment [5] (setting [11]), active: 85%; in [5] (at 50.0 µM), active: 99.5%; in experiment [6] (setting [10]), inactive: -124%; in experiment [6] (setting [11]) it was active: 79%; in experiment [6] (at 50.0 µM), active: 99.7%.

Source of the values: PubChem BioAssay (NCI).
